Patent publication US6747049B2, “Oxazole derivatives” (Hoffmann-La Roche Inc., priority 2002, dated 2004)

Target: T1, PPARα (Homo sapiens, UniProt Q07869)
T1 construct: expressed in transfected cells; host or cells: BHK21 (ATCC CCL10)
T1 sequence (Q07869 167-468 limits assumed): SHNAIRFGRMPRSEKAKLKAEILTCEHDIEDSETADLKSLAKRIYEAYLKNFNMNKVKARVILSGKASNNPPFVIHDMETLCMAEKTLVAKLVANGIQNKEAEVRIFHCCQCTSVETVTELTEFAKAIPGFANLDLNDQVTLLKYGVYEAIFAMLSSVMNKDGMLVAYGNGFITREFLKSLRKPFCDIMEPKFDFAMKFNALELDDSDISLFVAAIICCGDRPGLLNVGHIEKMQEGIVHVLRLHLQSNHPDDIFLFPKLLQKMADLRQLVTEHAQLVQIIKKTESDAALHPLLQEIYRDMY
Experiment: Luciferase transcriptional reporter gene assay, pFA-PPARα-LBD in BHK21 cells
Format: cell-based
Conditions: Gal4-PPARα-LBD luciferase reporter, 24 hours incubation
Description: Full-length cDNA clones for human PPARα and mouse PPARγ were obtained by RT-PCR from human adipose and mouse liver cRNA, respectively, cloned into plasmid vectors and verified by DNA sequencing. […] To accomplish this, the portions of the cloned sequences encoding the LBDs were amplified from the full-length clones by PCR and then subcloned into the plasmid vectors. Final clones were verified by DNA sequence analysis.
Luciferase Transcriptional Reporter Gene Assays
Baby hamster kidney cells (BHK21 ATCC CCL10) were grown in DMEM medium containing 10% FBS at 37° C. in a 95%O2:5%CO2 atmosphere. […] Following incubation of the cells for 24 hours with substances, 50 ul of the supernatant was recovered and analyzed for SEAP activity (Roche Molecular Biochemicals). […] Luminescence for both SEAP and luciferase was measured in a Packard TopCount. Luciferase activity was normalized to the SEAP control and transcriptional activation in the presence of a test substance was expressed as fold-activation over cells incubated in the absence of the substance. EC50 values were calculated using the XLfit program (ID Business Solutions Ltd. UK).

PPARα EC50: inactive
SMILES: CN(CCOc1ccc(CC2SC(=O)NC2=O)cc1)c1ccccn1 (stereo not shown) [Rosiglitazone, rosiglitazone, reference compound]
